Measured values: patent US20160146786A1, “Method of monitoring cellular trafficking of peptides” (PHYLOGICA LIMITED, priority 2013, published 2016)

Test: CD spectrophotometry of FITC-labelled peptides
Assay type: physicochemical

Transportan [reference compound]
CD spectral analysis, conformation (NaF Buffer pH 4.5): Weakly helical | CD spectral analysis, conformation (SDS Micelles pH 4.5): Strong helix | CD spectral analysis, conformation (SDS Micelles pH 7.2): Strong helix
